Literature values, collected in patent US20170246129A1, “COMPOSITION USING GUANIDINE COMPOUND FOR SUPPRESSING TRANSFORMING GROWTH FACTOR (TGF)-beta” (Peking University Third Hospital, priority 2016, published 2017).

Details: in vivo; cited from earlier work

SMILES: CN(C)C(=N)N=C(N)N [metformin, metformin hydrochloride]
- excretion: excreted unchanged in the urine
- metabolism: not metabolized

Where a name gives a salt, the structure may show the parent alone.
